PubChem BioAssay AID2057 (The Scripps Research Institute Molecular Screening Center, 2009)
This is a selection; strong and weak results do not stand in their true shares. Some salts and complexes are drawn in separate pieces, as the source files them; their charges need not balance. The source made the active and inactive calls.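 The calls were made as follows: active = inhibition above the mean inhibition of all tested compounds plus 3 SD, set per campaign (cut at about 40% in these data); inactive = the rest.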

Sequences of proteins named here, by UniProt entry; tags and fusion partners are left off.
UniProt Q07820, whole entry: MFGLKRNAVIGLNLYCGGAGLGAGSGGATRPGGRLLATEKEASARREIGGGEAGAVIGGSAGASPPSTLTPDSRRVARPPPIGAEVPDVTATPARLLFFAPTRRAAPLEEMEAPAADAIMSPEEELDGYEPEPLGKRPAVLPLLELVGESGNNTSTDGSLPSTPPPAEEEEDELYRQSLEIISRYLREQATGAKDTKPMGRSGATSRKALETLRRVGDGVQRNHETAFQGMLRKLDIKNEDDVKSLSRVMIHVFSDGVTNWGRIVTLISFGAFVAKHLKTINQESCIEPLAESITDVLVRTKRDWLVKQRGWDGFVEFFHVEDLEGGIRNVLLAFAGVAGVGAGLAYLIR

biological target: Induced myeloid leukemia cell differentiation protein Mcl-1 (Homo sapiens) (UniProt Q07820); test: MCL1-BIM peptide interaction disruptors – biochemical, fluorescence polarization, primary screen (AID 2057); details: GST-MCL1 / FITC-Bim-BH3 fluorescence polarization; at 10.9 µM; hits give high values;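 also: 0% = DMSO wells and 100% = unlabeled Bim-BH3 peptide control; higher means more loss of mP so more displacement of Bim peptide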

Row | SMILES | inhibition
1 | CCOP(C)(=S)SCC(=O)NC(C)C(=O)O (configuration not stated) | inactive: 9.16%
2 | O=[N+]([O-])c1cc([N+](=O)[O-])c(O)c([N+](=O)[O-])c1.c1ccc(Oc2ccncc2)cc1 | inactive: -3.95%
3 | CCOC(=O)c1ccc(NP(C)(=O)Oc2ccc(OC)cc2)cc1 (configuration not stated) | inactive: 3.94%
4 | CP(=O)(Nc1ccccn1)Oc1ccc(Cl)cc1 (configuration not stated) | inactive: -1.25%
5 | CP(=O)(Nc1ccc(SC(F)(F)F)cc1)Oc1ccc(Cl)cc1 (configuration not stated) | inactive: -1.56%
6 | Cc1cccc(C)c1OP(C)(=O)Nc1ccc(SC(F)(F)F)cc1 (configuration not stated) | inactive: 6.7%
7 | CP(=O)(Oc1ccccc1)OC(c1ccccc1)C(F)(F)F (configuration not stated) | inactive: 2.86%
8 | CCc1ccc(OP(C)(=O)N2CCN(c3ccc([N+](=O)[O-])cc3)CC2)cc1 (configuration not stated) | inactive: -5.03%
9 | CP(=O)(NC(=O)Nc1ccccc1)Oc1ccccc1 (configuration not stated) | inactive: 12.2%
10 | Cc1cc(C)cc(OP(C)(=O)Nc2ccc(SC(F)(F)F)cc2)c1 (configuration not stated) | inactive: -5.99%
11 | CCN(CC)CCCOC(=O)C(O)(c1ccccc1)c1ccccc1 | inactive: -6.49%
12 | CCOC(=O)c1ccc(NP(C)(=O)Oc2ccccc2)cc1 (configuration not stated) | inactive: 0.97%
13 | COc1ccccc1OP(C)(=O)Nc1ccc(C)cc1 (configuration not stated) | inactive: -2.73%
14 | Cc1ccc(NP(C)(=O)Oc2ccccc2)c(C)c1 (configuration not stated) | inactive: 1.95%
15 | COc1ccccc1OP(C)(=O)Nc1cc(Cl)ccc1C (configuration not stated) | inactive: 3.15%
16 | COc1ccc(OP(C)(=O)Nc2cccc(F)c2)cc1 (configuration not stated) | inactive: 5.89%
17 | Cc1cc(C)cc(OP(C)(N)=O)c1 (configuration not stated) | inactive: -0.72%
18 | O=[N+]([O-])c1cc([N+](=O)[O-])c(Nc2cccnc2)c([N+](=O)[O-])c1 | inactive: 20.4%
19 | CC(C)(C)c1ccc(OP(C)(=O)Nc2ccc(SC(F)(F)F)cc2)cc1 (configuration not stated) | inactive: -5.92%
20 | Cc1cccc(C)c1OP(C)(N)=O (configuration not stated) | inactive: -1.99%
21 | O=[N+]([O-])c1ccc2c(c1)C=Nc1ccccc1O2 | inactive: 4.68%
22 | Cc1nc2ccc3ccccc3c2o1.O=[N+]([O-])c1cc([N+](=O)[O-])c(O)c([N+](=O)[O-])c1 | inactive: 0.11%
23 | CP(=O)(OCCOc1ccccc1)OCCOc1ccccc1 | inactive: 0.41%

Row | SMILES | inhibition
24 | CP(=O)(Nc1ccc(Cl)cc1Cl)Oc1ccccc1 (configuration not stated) | inactive: 2.85%
25 | Cc1cc(C)cc(OP(C)(=O)Nc2cccc(C(F)(F)F)c2)c1 (configuration not stated) | inactive: -0.96%
26 | COc1ccc(OP(C)(=O)Nc2ccccc2Br)cc1 (configuration not stated) | inactive: 5.39%
27 | COc1ccccc1OP(C)(=O)Nc1ccc(C)c(C)c1 (configuration not stated) | inactive: 3.55%
28 | O=[N+]([O-])c1cc([N+](=O)[O-])c(Nc2ccccn2)c([N+](=O)[O-])c1 | inactive: -2.77%
29 | Cc1c(NP(C)(=O)Oc2ccc(C(C)C)cc2)c(=O)n(-c2ccccc2)n1C (configuration not stated) | inactive: 8.18%
30 | CCc1ccc(OP(C)(=O)O)cc1 | inactive: 0.08%
31 | CP(=O)(Nc1ccccn1)Oc1ccccc1 (configuration not stated) | inactive: 6.52%
32 | COc1ccccc1OP(C)(=O)Nc1ccc(C)cc1C (configuration not stated) | inactive: 6.31%
33 | COc1ccccc1OP(C)(=O)Nc1ccc(Br)cc1 (configuration not stated) | inactive: -4.29%
34 | CN(C)CCOC(=O)C(O)(c1ccccc1)C1CCCC1 (configuration not stated) | inactive: 5.38%
35 | COc1ccc(OP(C)(=O)Nc2ccccn2)cc1 (configuration not stated) | inactive: 6.32%
36 | CP(=O)(Nc1ccc(Cl)cc1)Oc1ccc(F)cc1 (configuration not stated) | inactive: -5.81%
37 | CC(C)(C)c1ccc(OP(C)(=O)O)cc1 | inactive: 3%
38 | COc1ccccc1OP(C)(=O)Nc1ccccc1Br (configuration not stated) | inactive: 1.25%
39 | CN(C)C(=O)c1c([N+](=O)[O-])cc([N+](=O)[O-])cc1[N+](=O)[O-] | inactive: 4.81%
40 | CCN(CC)CC(O)COC(=O)C(O)(c1ccccc1)C1CCCCC1 (configuration not stated) | inactive: -2.05%
41 | COc1ccc(OP(C)(=O)Nc2ccc(Br)cc2)cc1 (configuration not stated) | inactive: 7.59%
42 | CP(=O)(Oc1ccccc1)N1CCOC1=O (configuration not stated) | inactive: -1.42%
43 | CCc1ccc(OP(C)(=O)Nc2cccnc2)cc1 (configuration not stated) | inactive: 1.85%
44 | COc1ccccc1OP(C)(=O)Nc1c(C)n(C)n(-c2ccccc2)c1=O (configuration not stated) | inactive: 6.62%
45 | O=C(OCCCN1CCCC1)C(O)(c1ccccc1)C1CCCCC1 (configuration not stated) | inactive: -0.94%
46 | Nc1ccc2c(ccc3cccnc32)n1.O=[N+]([O-])c1cc([N+](=O)[O-])c(O)c([N+](=O)[O-])c1 | inactive: 8.63%

Row | SMILES | inhibition
47 | CP(=O)(OC12CC3CC(CC(C3)C1)C2)OC12CC3CC(CC(C3)C1)C2 | inactive: 1.41%
48 | CCOC(=O)c1ccc(NP(C)(=O)Oc2ccc(Cl)cc2)cc1 (configuration not stated) | inactive: 1.51%
49 | O=[N+]([O-])c1cc([N+](=O)[O-])c(NCC2CCS(=O)(=O)C2)c([N+](=O)[O-])c1 (configuration not stated) | inactive: 0.32%
50 | COc1ccc(OP(C)(=O)Nc2cccc(Br)c2)cc1 (configuration not stated) | inactive: 3.33%
51 | COc1ccc(NP(C)(=O)Oc2ccccc2OC)cc1 (configuration not stated) | inactive: 2.49%
52 | CN(C)CCOC(=O)C(O)(c1ccccc1)C1CCCCC1 (configuration not stated) | inactive: 6.81%
53 | CP(=O)(Nc1ccc2c(c1)OCCO2)Oc1ccccc1 (configuration not stated) | inactive: 6.66%
54 | Cc1ccccc1NP(C)(=O)Nc1ccccc1C | inactive: -0.85%
55 | CP(=O)(Nc1ccc(SC(F)(F)F)cc1)Oc1ccc(F)cc1 (configuration not stated) | inactive: 2.07%
56 | CCOP(C)(=S)SCC(=O)NC(C)(CC)C(=O)O (configuration not stated) | inactive: 5.42%
57 | O=C(OCCN1CCN(CCOCc2ccccc2)CC1)C(O)(c1ccccc1)c1ccccc1 | inactive: 2.02%
58 | O=C(OC1CN2CCC1CC2)c1ccc([N+](=O)[O-])cc1 (configuration not stated) | inactive: 3.33%
59 | COc1ccc2c(c1O)-c1c(O)c(OC)cc3c1[C@H](C2)[N+](C)(C)CC3.O=[N+]([O-])c1cc([N+](=O)[O-])c([O-])c([N+](=O)[O-])c1[O-] | inactive: 17.7%
60 | CC(C)c1ccc(OP(C)(=O)Nc2ccc(SC(F)(F)F)cc2)cc1 (configuration not stated) | inactive: 10.8%
61 | CP(=O)(Nc1ccccc1F)Oc1ccccc1 (configuration not stated) | inactive: -0.56%
62 | CCN(CC)CCCOC(=O)C(O)(c1ccccc1)C1CCCCC1 (configuration not stated) | inactive: -0.66%
63 | O=[N+]([O-])c1cc([N+](=O)[O-])c(OC2CCCCC2O)c([N+](=O)[O-])c1 (configuration not stated) | inactive: 3.05%
64 | CCCCCOc1ccc(NP(C)(=O)Oc2ccc(Cl)cc2Cl)cc1 (configuration not stated) | inactive: 3.03%
65 | CP(=O)(Nc1ccccc1)Oc1ccc(F)cc1 (configuration not stated) | inactive: 0.31%
66 | COc1ccc(OP(C)(=O)Nc2ccc(SC(F)(F)F)cc2)cc1 (configuration not stated) | inactive: 3.9%
67 | CCOC(=O)c1ccc(NP(C)(=O)Oc2ccc(F)cc2)cc1 (configuration not stated) | inactive: 4.45%
